Protein sequences, listed by entry. Tags and fused reporters are not part of them.
UniProt P04049, whole entry Y340E/Y341E: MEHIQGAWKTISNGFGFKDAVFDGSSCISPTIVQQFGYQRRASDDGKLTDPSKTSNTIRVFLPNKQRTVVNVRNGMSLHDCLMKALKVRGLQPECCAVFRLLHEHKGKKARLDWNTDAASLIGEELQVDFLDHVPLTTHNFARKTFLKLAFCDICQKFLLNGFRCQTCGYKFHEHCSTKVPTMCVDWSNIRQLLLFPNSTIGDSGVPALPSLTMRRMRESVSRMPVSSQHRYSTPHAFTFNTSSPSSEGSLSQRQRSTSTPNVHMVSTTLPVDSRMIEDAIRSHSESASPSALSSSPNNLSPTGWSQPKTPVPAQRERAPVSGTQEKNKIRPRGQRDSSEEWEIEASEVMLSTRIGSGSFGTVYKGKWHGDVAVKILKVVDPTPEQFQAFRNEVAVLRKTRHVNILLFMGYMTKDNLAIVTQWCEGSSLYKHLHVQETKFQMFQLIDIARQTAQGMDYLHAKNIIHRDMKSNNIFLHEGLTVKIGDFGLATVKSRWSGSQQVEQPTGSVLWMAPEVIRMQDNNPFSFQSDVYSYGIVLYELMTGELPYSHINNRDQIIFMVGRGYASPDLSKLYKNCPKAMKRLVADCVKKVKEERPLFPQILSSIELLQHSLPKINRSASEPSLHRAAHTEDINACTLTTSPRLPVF

In patent US9694016B2 (Novartis AG, priority 2013, dated 2017):

Target: C-Raf FL (full-length C-Raf protein, Y340E and Y341E activating mutations) (Homo sapiens (Human), UniProt P04049, Y340E/Y341E)
Format: biochemical
Conditions: AlphaScreen, 60 min pre-incubation, 1 hour reaction; read-out: c-Raf FL IC-50

Row | IC50 | SMILES
1 | 0.7 nM | Cc1ccc(NC(=O)c2ccnc(C(C)(C)F)c2)cc1-c1cc(C2CCOCC2)c(=O)n(C)n1 [Example 676, 2-(2-fluoropropan-2-yl)-N-(4-methyl-3-(1-methyl-6-oxo-5-(tetrahydro-2H-pyran-4-yl)-1,6-dihydropyridazin-3-yl)phenyl)isonicotinamide]
2 | 4.6 nM | Cc1ncc(NC(=O)c2ccnc(C(C)(C)F)c2)cc1-c1cc(N2CCOCC2)c(=O)n(C)n1 [Example 677, 2-(2-fluoropropan-2-yl)-N-(6-methyl-5-(1-methyl-5-morpholino-6-oxo-1,6-dihydropyridazin-3-yl)pyridin-3-yl)isonicotinamide]
3 | 2.1 nM | Cc1ncc(NC(=O)c2ccnc(C(C)(F)F)c2)cc1-c1cc(N2CCOCC2)c(=O)n(C)n1 [Example 678, 2-(1,1-difluoroethyl)-N-(6-methyl-5-(1-methyl-5-morpholino-6-oxo-1,6-dihydropyridazin-3-yl)pyridin-3-yl)isonicotinamide]
4 | 2.7 nM | CCC(F)(F)c1cc(C(=O)Nc2cnc(C)c(-c3cc(N4CCOCC4)c(=O)n(C)n3)c2)ccn1 [Example 679, 2-(1,1-difluoropropyl)-N-(6-methyl-5-(1-methyl-5-morpholino-6-oxo-1,6-dihydropyridazin-3-yl)pyridin-3-yl)isonicotinamide]
5 | 4 nM | Cc1ncc(NC(=O)c2ccnc(C(F)F)c2)cc1-c1cc(N2CCOCC2)c(=O)n(C)n1 [Example 680, 2-(difluoromethyl)-N-(6-methyl-5-(1-methyl-5-morpholino-6-oxo-1,6-dihydropyridazin-3-yl)pyridin-3-yl)isonicotinamide]
6 | 1 nM | Cc1ncc(NC(=O)c2cccc(C(F)F)c2)cc1-c1cc(N2CCOCC2)c(=O)n(C)n1 [Example 681, 3-(difluoromethyl)-N-(6-methyl-5-(1-methyl-5-morpholino-6-oxo-1,6-dihydropyridazin-3-yl)pyridin-3-yl)benzamide]
7 | 2.2 nM | Cc1ncc(NC(=O)c2ccnc(C3CC3)c2)cc1-c1cc(N2CCOCC2)c(=O)n(C)n1 [Example 682, 2-cyclopropyl-N-(6-methyl-5-(1-methyl-5-morpholino-6-oxo-1,6-dihydropyridazin-3-yl)pyridin-3-yl)isonicotinamide]
8 | 3 nM | Cc1ncc(NC(=O)c2ccnc(C3(C#N)CC3)c2)cc1-c1cc(N2CCOCC2)c(=O)n(C)n1 [Example 683, 2-(1-cyanocyclopropyl)-N-(6-methyl-5-(1-methyl-5-morpholino-6-oxo-1,6-dihydropyridazin-3-yl)pyridin-3-yl)isonicotinamide]
9 | 0.3 nM | Cc1ncc(NC(=O)c2cccc(C(F)(F)F)c2)cc1-c1ccc(C#N)c(N2CCOCC2)c1 [Example 684]
10 | 1.9 nM | Cc1ncc(NC(=O)c2cc(CN(C)C)cc(C(F)(F)F)c2)cc1-c1ccc(C#N)c(N2CCOCC2)c1 [Example 685, N-(5-(4-cyano-3-morpholinophenyl)-6-methylpyridin-3-yl)-3-((dimethylamino)methyl)-5-(trifluoromethyl)benzamide]
11 | 0.2 nM | Cc1ncc(NC(=O)c2ccnc(C(C)C)c2)cc1-c1ccc(C#N)c(N2CCOCC2)c1 [Example 686, N-(5-(4-cyano-3-morpholinophenyl)-6-methylpyridin-3-yl)-2-isopropylisonicotinamide]
12 | 0.2 nM | Cc1ncc(NC(=O)c2cccc(C(F)(F)F)c2)cc1-c1ccc(S(C)(=O)=O)c(N2CCOCC2)c1 [Example 687, N-(6-methyl-5-(4-(methylsulfonyl)-3-morpholinophenyl)pyridin-3-yl)-3-(trifluoromethyl)benzamide]
13 | 1.6 nM | CCNc1nc(-c2cc(NC(=O)c3ccccc3)ccc2C)cc(N2CCOCC2)n1 [Example 695, N-(3-(2-(ethylamino)-6-morpholinopyrimidin-4-yl)-4-methylphenyl)benzamide]
14 | 1 nM | CCNc1nc(-c2cc(NC(=O)c3ccnc(C(C)(C)C)c3)ccc2C)cc(N2CCOCC2)n1 [Example 696, 2-(tert-butyl)-N-(3-(2-(ethylamino)-6-morpholinopyrimidin-4-yl)-4-methylphenyl)isonicotinamide]
15 | 0.2 nM | CCNc1nc(-c2cc(NC(=O)c3cccc(C(F)F)c3)ccc2C)cc(N2CCOCC2)n1 [Example 698, 3-(difluoromethyl)-N-(3-(2-(ethylamino)-6-morpholinopyrimidin-4-yl)-4-methylphenyl)benzamide]
16 | 0.7 nM | CCNc1nc(-c2cc(NC(=O)c3cccc(-c4nnco4)c3)ccc2C)cc(N2CCOCC2)n1 [Example 699, N-(3-(2-(ethylamino)-6-morpholinopyrimidin-4-yl)-4-methylphenyl)-3-(1,3,4-oxadiazol-2-yl)benzamide]
17 | 0.3 nM | CCNc1nc(-c2cc(NC(=O)c3cccc(C(C)(F)F)c3)ccc2C)cc(N2CCOCC2)n1 [Example 701, 3-(1,1-difluoroethyl)-N-(3-(2-(ethylamino)-6-morpholinopyrimidin-4-yl)-4-methylphenyl)benzamide]

Row | IC50 | SMILES
18 | 1.3 nM | CCNc1nc(-c2cc(NC(=O)c3ccnc(S(C)(=O)=O)c3)ccc2C)cc(N2CCOCC2)n1 [Example 702, N-(3-(2-(ethylamino)-6-morpholinopyrimidin-4-yl)-4-methylphenyl)-2-(methylsulfonyl)isonicotinamide]
19 | 0.4 nM | CCNc1nc(-c2cc(NC(=O)c3cc(C(F)(F)F)c(=O)n(CC)c3)ccc2C)cc(N2CCOCC2)n1 [Example 703, 1-ethyl-N-(3-(2-(ethylamino)-6-morpholinopyrimidin-4-yl)-4-methylphenyl)-6-oxo-5-(trifluoromethyl)-1,6-dihydropyridine-3-carboxamide]
20 | 1.4 nM | CCNc1nc(-c2cc(NC(=O)c3ccnc(C(C)(C)O)c3)ccc2C)cc(N2CCOCC2)n1 [Example 705, N-(3-(2-(ethylamino)-6-morpholinopyrimidin-4-yl)-4-methylphenyl)-2-(2-hydroxypropan-2-yl)isonicotinamide]
21 | 0.3 nM | CCNc1nc(-c2cc(NC(=O)c3ccnc(C(F)(F)CC)c3)ccc2C)cc(N2CCOCC2)n1 [Example 706, 2-(1,1-difluoropropyl)-N-(3-(2-(ethylamino)-6-morpholinopyrimidin-4-yl)-4-methylphenyl)isonicotinamide]
22 | 0.7 nM | CCNc1nc(-c2cc(NC(=O)c3ccnc(C4COC4)c3)ccc2C)cc(N2CCOCC2)n1 [Example 707, N-(3-(2-(ethylamino)-6-morpholinopyrimidin-4-yl)-4-methylphenyl)-2-(oxetan-3-yl)isonicotinamide]
23 | 0.1 nM | CCNc1nc(-c2cc(NC(=O)c3ccnc(C4(C#N)CC4)c3)ccc2C)cc(N2CCOCC2)n1 [Example 708, 2-(1-cyanocyclopropyl)-N-(3-(2-(ethylamino)-6-morpholinopyrimidin-4-yl)-4-methylphenyl)isonicotinamide]
24 | 1.3 nM | CCNc1nc(-c2cc(NC(=O)c3cnnc(C(C)(C)C#N)c3)ccc2C)cc(N2CCOCC2)n1 [Example 709, 6-(2-cyanopropan-2-yl)-N-(3-(2-(ethylamino)-6-morpholinopyrimidin-4-yl)-4-methylphenyl)pyridazine-4-carboxamide]
25 | 2.6 nM | CCNc1nc(-c2cc(NC(=O)c3ccnc(C(C)(C)C#N)c3)ccc2C)cc(N2CCOC[C@H]2C)n1 [Example 711, (R)-2-(2-cyanopropan-2-yl)-N-(3-(2-(ethylamino)-6-(3-methylmorpholino)pyrimidin-4-yl)-4-methylphenyl)isonicotinamide]
26 | 6.4 nM | CCNc1nc(-c2cc(NC(=O)c3ccnc(C(C)(C)O)c3)ccc2C)cc(N2CCOC[C@H]2C)n1 [Example 712, (R)—N-(3-(2-(ethylamino)-6-(3-methylmorpholino)pyrimidin-4-yl)-4-methylphenyl)-2-(2-hydroxypropan-2-yl)isonicotinamide]
27 | 1.4 nM | CCNc1nc(-c2cc(NC(=O)c3ccnc(C(C)(C)O)c3)ccc2C)cc(N2CCOC[C@@H]2C)n1 [Example 713, (S)—N-(3-(2-(ethylamino)-6-(3-methylmorpholino)pyrimidin-4-yl)-4-methylphenyl)-2-(2-hydroxypropan-2-yl)isonicotinamide]
28 | 0.9 nM | CCNc1nc(-c2cc(NC(=O)c3ccnc(C(C)(C)C#N)c3)ccc2C)cc(N2CCOC[C@@H]2C)n1 [Example 714, (S)-2-(2-cyanopropan-2-yl)-N-(3-(2-(ethylamino)-6-(3-methylmorpholino)pyrimidin-4-yl)-4-methylphenyl)isonicotinamide]
29 | 0.6 nM | CCNc1nc(-c2cc(NC(=O)c3cccc(C(F)(F)F)c3)cnc2C)cc(N2CCOCC2)n1 [Example 716, N-(5-(2-(ethylamino)-6-morpholinopyrimidin-4-yl)-6-methylpyridin-3-yl)-3-(trifluoromethyl)benzamide]
30 | 0.8 nM | CCNc1nc(-c2cc(NC(=O)c3ccnc(C(C)(C)C#N)c3)ccc2C)cc(N2CCOCC2)n1 [Example 717, 2-(2-cyanopropan-2-yl)-N-(3-(2-(ethylamino)-6-morpholinopyrimidin-4-yl)-4-methylphenyl)isonicotinamide]
31 | 2.3 nM | CCNc1nc(-c2cc(NC(=O)c3ccnc(C(C)(C)C#N)c3)cnc2C)cc(N2CCOCC2)n1 [Example 718, 2-(2-cyanopropan-2-yl)-N-(5-(2-(ethylamino)-6-morpholinopyrimidin-4-yl)-6-methylpyridin-3-yl)isonicotinamide]
32 | 0.9 nM | CCNc1nc(-c2cc(NC(=O)c3ccnc(C(F)F)c3)cnc2C)cc(N2CCOCC2)n1 [Example 721, 2-(difluoromethyl)-N-(5-(2-(ethylamino)-6-morpholinopyrimidin-4-yl)-6-methylpyridin-3-yl)isonicotinamide]
33 | 6.8 nM | CCNc1nc(-c2cc(NC(=O)c3ccnc(C(C)(C)O)c3)cnc2C)cc(N2CCOCC2)n1 [Example 723, N-(5-(2-(ethylamino)-6-morpholinopyrimidin-4-yl)-6-methylpyridin-3-yl)-2-(2-hydroxypropan-2-yl)isonicotinamide]

Row | SMILES | IC50
34 | Cc1ccc(NC(=O)c2ccnc(C(C)(F)F)c2)cc1-c1cc(N2C3CCC2COC3)cc(=O)n1C [Example 691, N-(3-(4-(3-oxa-8-azabicyclo[3.2.1]octan-8-yl)-1-methyl-6-oxo-1,6-dihydropyridin-2-yl)-4-methylphenyl)-2-(1,1-difluoroethyl)isonicotinamide] | 3.2 nM
